Experimental data as given in PubChem BioAssay AID1776 (NMMLSC, 2009).
The entries are a selection whose mix differs from that of the whole data set. Active and inactive are the calls of the source. No stated cut-off is given here; in the data, active means fluorescence above about 89; inactive means the rest.

Test: compound fluorescence on glutathione beads, profiling panel, artefact control, biophysical, 488/530 nm, flow cytometry (AID 1776);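 further: glutathione beads carrying GST-tagged Bcl family fusion proteins plus one bare bead set; values are compound well signal with DMSO vehicle wells as background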
Settings: GSH beads flow cytometry, compound fluorescence 488/530 nm; at 10 µM; stronger effect = higher value
In the case of `c1nnnn1CCn1cnnn1`, the fluorescence (KMESF) is reported as inactive: 29. With `CC(C)C(=O)NC(Sc1ccccc1)C(Cl)(Cl)Cl` (centres undefined) the fluorescence (KMESF) was inactive: 17. For `O=P(Nc1nccs1)(c1ccccc1)c1ccccc1`, the fluorescence (KMESF) was inactive: 27. For `C(Cc1nn[nH]n1)Cc1nn[nH]n1`, the fluorescence (KMESF) was inactive: 11. For `O=C(OC1CN2CCC1CC2)c1cccc(Cl)c1` (centres undefined), the fluorescence (KMESF) was inactive: 24. In the case of `CC(=O)NC(SC(=S)N(C)C)C(Cl)(Cl)Cl` (centres undefined), the fluorescence (KMESF) is reported as inactive: 24. For `O=P(Nc1ccccn1)(c1ccc(Br)cc1)c1ccc(Br)cc1`, the fluorescence (KMESF) was inactive: 15. For `O=c1c2cc([N+](=O)[O-])ccc2[nH]c2c([N+](=O)[O-])cc([N+](=O)[O-])cc12`, the fluorescence (KMESF) was inactive: 10. In the case of `Cc1ccc(OP(=O)(Nc2ccccn2)Oc2ccc(C)cc2)cc1`, the fluorescence (KMESF) is reported as inactive: 12. With `CC(=O)NC(SC(=S)N(CC(C)C)CC(C)C)C(Cl)(Cl)Cl` (centres undefined) the fluorescence (KMESF) was inactive: 24. In the case of `COC(=O)c1cc2c(s1)N=C(c1ccccc1)N(C)P2(=O)N1CCOCC1` (centres undefined), the fluorescence (KMESF) is reported as inactive: 23. With `CCC(=O)N1C2C3N(C(=O)CC)C1C1N(C(=O)CC)C(C(N1C(=O)CC)N3C(=O)CC)N2C(=O)CC` the fluorescence (KMESF) was inactive: 16. In the case of `CCNC(=S)/N=C(\N)N[N+](=O)[O-]`, the fluorescence (KMESF) is reported as inactive: 21. In the case of `O=C(NC1CCS(=O)(=O)C1)NP(=S)(Oc1ccccc1)Oc1ccccc1` (centres undefined), the fluorescence (KMESF) is reported as inactive: 16. With `CCOC(=O)NC(Sc1ccccc1)C(Cl)(Cl)Cl` (centres undefined) the fluorescence (KMESF) was inactive: 13. For `c1ccc(-c2nn[nH]n2)c(-c2nn[nH]n2)c1`, the fluorescence (KMESF) was inactive: 9. In the case of `CC(=O)Nc1ccc(Oc2c([N+](=O)[O-])cc([N+](=O)[O-])cc2[N+](=O)[O-])cc1`, the fluorescence (KMESF) is reported as inactive: 17. With `CC(C)(C)C(=O)NC(Sc1ccccc1)C(Cl)(Cl)Cl` (centres undefined) the fluorescence (KMESF) was inactive: 12. For `CCOc1ccc(C2=NCC(CBr)S2)cc1` (centres undefined), the fluorescence (KMESF) was inactive: 26. For `O=P1(Nc2nc3ccc(Cl)cc3s2)COc2ccccc2O1` (centres undefined), the fluorescence (KMESF) was inactive: 6. For `CC(C)CC(=O)NC(Sc1ccc(Cl)cc1)C(Cl)(Cl)Cl` (centres undefined), the fluorescence (KMESF) was inactive: 55. In the case of `Cc1c2non([O-])c-2c(C)[n+](=O)[n+]1[O-]`, the fluorescence (KMESF) is reported as inactive: 45. For `O=C(NC(Sc1ccncn1)C(Cl)(Cl)Cl)c1ccccc1` (centres undefined), the fluorescence (KMESF) was inactive: 10. In the case of `Oc1ccccc1CNc1ccccn1`, the fluorescence (KMESF) is reported as inactive: 26. For `COc1ccccc1OP(=O)(Nc1ccc(C)cn1)Oc1ccccc1OC`, the fluorescence (KMESF) was inactive: 13. With `Clc1ccc(Cl)c(NC2=NCC(CBr)S2)c1` (centres undefined) the fluorescence (KMESF) was inactive: 24. In the case of `CN1CCCC(OC(=O)C(c2ccccc2)c2ccccc2)C1` (centres undefined), the fluorescence (KMESF) is reported as inactive: 14. For `NC(=O)c1cc([N+](=O)[O-])cc([N+](=O)[O-])c1N`, the fluorescence (KMESF) was inactive: 10. For `Cc1ccc(N/C(=N/P(=O)(N2CCOCC2)N2CCOCC2)N2CCOCC2)cc1`, the fluorescence (KMESF) was inactive: 72. In the case of `CCN(N=Nc1nonc1N)c1nonc1N`, the fluorescence (KMESF) is reported as inactive: 16. In the case of `CCOP(=O)(Nc1ccccc1)OCC`, the fluorescence (KMESF) is reported as inactive: 12. In the case of `Cc1cc(SC(NC(=O)c2ccc(F)cc2)C(Cl)(Cl)Cl)ncn1` (centres undefined), the fluorescence (KMESF) is reported as inactive: 18. In the case of `O=[N+]([O-])c1ncn(CCn2ncnc2[N+](=O)[O-])n1`, the fluorescence (KMESF) is reported as inactive: 16. For `CN(C)C(=O)OCCc1n(C)cc[n+]1C`, the fluorescence (KMESF) was inactive: 8. For `CC(C)=N/N=C(\N)N[N+](=O)[O-]`, the fluorescence (KMESF) was inactive: 18. In the case of `CC1CCN(C(=O)Oc2c(Cl)cc(Cl)c3cccnc23)CC1`, the fluorescence (KMESF) is reported as inactive: 10. For `CCN(/C(=N/P(=O)(N1CCOCC1)N1CCOCC1)N1CCOCC1)c1ccc(OC)cc1`, the fluorescence (KMESF) was inactive: 13. For `O=[N+]([O-])c1cccc2n[nH]nc12`, the fluorescence (KMESF) was inactive: 51. For `CC(=O)N1C2C3N(C(C)=O)C1C1N(C(C)=O)C(C(N1C(C)=O)N3C(C)=O)N2C(C)=O`, the fluorescence (KMESF) was inactive: 24. With `CCc1nc2c(n1)c1c(non1O)c1c2no[n+]1[O-]` the fluorescence (KMESF) was inactive: 8. In the case of `O=[N+]([O-])c1cc([N+](=O)[O-])c(CCNc2ccccc2)c([N+](=O)[O-])c1`, the fluorescence (KMESF) is reported as inactive: 13. With `Cc1ccc(NP(=O)(Oc2ccccc2)Oc2ccccc2)nc1` the fluorescence (KMESF) was inactive: 9. In the case of `COc1ccc(C2=NCC(CBr)S2)cc1` (centres undefined), the fluorescence (KMESF) is reported as inactive: 13. In the case of `CCC(C)N(CC(C)C)C(=S)SC(NC(C)=O)C(Cl)(Cl)Cl` (centres undefined), the fluorescence (KMESF) is reported as inactive: 21. In the case of `O=C(COc1ccccc1)OC1CN2CCC1CC2` (centres undefined), the fluorescence (KMESF) is reported as inactive: 21. In the case of `COP1(=S)c2c(C)nn(CCC#N)c2N=C(c2ccc(F)cc2)N1C` (centres undefined), the fluorescence (KMESF) is reported as inactive: 26. In the case of `O=P(Nc1ccccn1)(c1cccc2ccccc12)c1cccc2ccccc12`, the fluorescence (KMESF) is reported as inactive: 18. In the case of `Cc1cc(SC(NC=O)C(Cl)(Cl)Cl)ncn1` (centres undefined), the fluorescence (KMESF) is reported as inactive: 16. In the case of `Cc1cc(SC(NC(=O)c2ccccc2)C(Cl)(Cl)Cl)nc(C(C)C)n1` (centres undefined), the fluorescence (KMESF) is reported as inactive: 10. In the case of `O=[N+]([O-])c1cc([N+](=O)[O-])c(-c2ccn[nH]2)s1`, the fluorescence (KMESF) is reported as inactive: 15. With `CCN(CC)C(=S)SC(NC=O)C(Cl)(Cl)Cl` (centres undefined) the fluorescence (KMESF) was inactive: 10. For `CC(C)NC(=O)NP(=O)(Oc1ccccc1)Oc1ccccc1`, the fluorescence (KMESF) was inactive: 15. With `ClCCSc1nnc(-c2cccnc2)o1` the fluorescence (KMESF) was inactive: 29. With `Cc1ccc2nc3c(c(C)c2c1)CC(C(Cl)Cl)S3` (centres undefined) the fluorescence (KMESF) was inactive: 20. In the case of `COc1ccc(N/C(=N/P(=O)(N2CCOCC2)N2CCOCC2)N2CCOCC2)cc1`, the fluorescence (KMESF) is reported as inactive: 9. For `COc1ccc2nc(NP(=O)(c3ccccc3)c3ccccc3)sc2c1`, the fluorescence (KMESF) was inactive: 10. With `Cc1cc(=O)[nH]c(N[N+](=O)[O-])n1` the fluorescence (KMESF) was inactive: 14. In the case of `O=C(OC1CN2CCC1CC2)C12CC3CC(CC(C3)C1)C2` (centres undefined), the fluorescence (KMESF) is reported as inactive: 25. For `Cc1c2c(nc3ccccc13)SC(C(Cl)Cl)C2` (centres undefined), the fluorescence (KMESF) was inactive: 9. For `CCOP(=O)(Nc1cccc2ccccc12)OCC`, the fluorescence (KMESF) was inactive: 19. In the case of `COc1cc(C2NCCC3(OCCO3)C2(C)C)cc(OC)c1OC` (centres undefined), the fluorescence (KMESF) is reported as inactive: 10. With `Cc1ccc(NCCc2c([N+](=O)[O-])cc([N+](=O)[O-])cc2[N+](=O)[O-])cc1` the fluorescence (KMESF) was inactive: 8. In the case of `Cc1cccc(OCC(=O)OC2CN3CCC2CC3)c1` (centres undefined), the fluorescence (KMESF) is reported as inactive: 10. For `COc1cc(C(=O)NCC2(N3CCOCC3)CCCCC2)cc(Cl)c1OC(C)C`, the fluorescence (KMESF) was inactive: 11. For `O=[N+]([O-])c1ccc2c(c1)nnn2O`, the fluorescence (KMESF) was inactive: 57. In the case of `CCOP1(=S)c2c(C)nn(CCC#N)c2N=C(c2ccc(F)cc2)N1C` (centres undefined), the fluorescence (KMESF) is reported as inactive: 34. For `O=P(Nc1nccs1)(c1ccccc1)c1nc2ccccc2s1` (centres undefined), the fluorescence (KMESF) was inactive: 23. In the case of `O=P(Nc1nccs1)(Oc1ccccc1)Oc1ccccc1`, the fluorescence (KMESF) is reported as inactive: 14. With `CCOP1(=S)c2c(C)nn(CCC#N)c2N=C(c2ccccc2F)N1C` (centres undefined) the fluorescence (KMESF) was inactive: 25. With `O=P1(Nc2ccc(Br)cn2)COc2ccccc2OC1` the fluorescence (KMESF) was inactive: 5. With `Cc1ccc(OCC(=O)OC2CN3CCC2CC3)cc1` (centres undefined) the fluorescence (KMESF) was inactive: 52. With `O=P1(Nc2ncccn2)COc2ccccc2OC1` the fluorescence (KMESF) was inactive: 29. With `CN(C)C1(CNC(=O)c2ccc(S(C)(=O)=O)cc2)CCCCC1` the fluorescence (KMESF) was inactive: 22. In the case of `CC1CCC(C(C)C)C(OP(=O)(Nc2ccccn2)c2ccccc2)C1` (centres undefined), the fluorescence (KMESF) is reported as inactive: 20. In the case of `Cc1nn(-c2ccccc2)c2c1P(=O)(N1CCOCC1)N(C)C(c1ccccc1)=N2` (centres undefined), the fluorescence (KMESF) is reported as inactive: 21. In the case of `CC(C)/C=N\N=C(\N)N[N+](=O)[O-]`, the fluorescence (KMESF) is reported as inactive: 12. With `CN(C(=O)Cc1ccc(Cl)c(Cl)c1)[C@@H]1CCCC[C@H]1N1CCCC1` the fluorescence (KMESF) was inactive: 66. With `Clc1n[nH]nc1-c1nn[nH][15n]1` the fluorescence (KMESF) was inactive: 26. In the case of `O=P1(Nc2ccccn2)COc2ccccc2OC1`, the fluorescence (KMESF) is reported as inactive: 30.
